Measured values taken from ChEMBL document CHEMBL4680357, “The Basicity Makes the Difference: Improved Canavanine-Derived Inhibitors of the Proprotein Convertase Furin” (ACS Med Chem Lett, 2021).

By UniProt entry, the sequences of proteins in these tests, tags left out.
UniProt P09958, whole entry: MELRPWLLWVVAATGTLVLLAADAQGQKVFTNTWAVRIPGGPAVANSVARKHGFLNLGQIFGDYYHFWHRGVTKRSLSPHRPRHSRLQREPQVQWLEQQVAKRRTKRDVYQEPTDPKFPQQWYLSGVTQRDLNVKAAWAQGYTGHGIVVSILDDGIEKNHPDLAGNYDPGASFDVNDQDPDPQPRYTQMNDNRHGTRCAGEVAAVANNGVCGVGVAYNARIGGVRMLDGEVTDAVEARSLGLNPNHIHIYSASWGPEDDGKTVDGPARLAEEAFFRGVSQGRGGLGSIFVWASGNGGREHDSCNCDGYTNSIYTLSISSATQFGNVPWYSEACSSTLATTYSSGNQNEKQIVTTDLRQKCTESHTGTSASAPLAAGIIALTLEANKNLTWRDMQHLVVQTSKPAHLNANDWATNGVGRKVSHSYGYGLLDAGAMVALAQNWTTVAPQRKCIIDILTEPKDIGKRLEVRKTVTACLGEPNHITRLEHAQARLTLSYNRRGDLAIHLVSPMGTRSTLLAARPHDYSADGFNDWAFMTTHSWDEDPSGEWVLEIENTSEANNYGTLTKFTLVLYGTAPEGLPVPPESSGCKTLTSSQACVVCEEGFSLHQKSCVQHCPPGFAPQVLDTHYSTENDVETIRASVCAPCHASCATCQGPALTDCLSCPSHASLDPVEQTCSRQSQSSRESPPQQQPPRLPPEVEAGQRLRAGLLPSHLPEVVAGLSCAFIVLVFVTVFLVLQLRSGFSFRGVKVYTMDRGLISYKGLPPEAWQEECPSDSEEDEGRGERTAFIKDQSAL

Molecular target: Furin (Homo sapiens, UniProt P09958)
Assay: Inhibition of recombinant soluble human furin using Phac-Arg-Val-Arg-Arg-AMC fluorogenic substrate
Procedure, shortened: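 Enzyme kinetic assay under standard conditions at pH 7.0, using recombinant soluble human furin and the fluorogenic AMC substrate. Inhibition constants were determined from the kinetics.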

Compound: CC(C)(C)[C@H](NC(=O)[C@H](CCONC(=N)N)NC(=O)Cc1ccc(CN)cc1)C(=O)N[C@@H](CCCCN)C(=O)NCc1ccc(C(=N)N)cc1
- Ki: 114 pM
